Data as given in publication PMC5378956, “Inhibition of delta-secretase improves cognitive functions in mouse models of Alzheimer's disease” (Nature Communications, 2017).

Tests used:
[1] = tested on: mice overexpressing tau 1-368; conditions: mouse, in vivo
[2] = Caco-2 monolayer permeability screen; conditions: human

SMILES: Nc1ccc(N2CCOCC2)c2nonc12 [compound 11, 7-(morpholin-4-yl)-2,1,3-benzoxadiazol-4-amine]
- density of microglia (5XFAD mice; 5XFAD mice): decreased the density of microglia
- density of synapse (electron microscopy) (5XFAD mice; mouse, in vivo): notably increased the density of synapse
- phosphorylation of tau, cognitive and synaptic function in tau 1–368 mice [1]: did not affect
- efflux ratio at 2 h, 10 µM [2]: 0.2
- PP2A activity (tau P301S mice; 10 mg kg−1 d−1 oral, 3 months): increased PP2A activity
- synaptic density in CA1 (electron microscopy) (tau P301S mice; mouse, in vivo): significantly increased the density of synapses
- density of microglia (tau P301S mice; tau P301S mice): decreased the density of microglia
